Assay: soluble on expression in E. coli; label from the status in PepcDB or PDB records

Soluble on expression in E. coli, soluble:
MEEGGSTGSAGSDSSTSGSGGAQQRELERMAEVLVTGEQLRLRLHEEKVIKDRRHHLKTYPNCFVAKELIDWLIEHKEASDRETAIKLMQKLADRGIIHHVCDEHKEFKDVKLFYRFRKDDGTFPLDNEVKAFMRGQRLYEKLMSPENTLLQPREEEGVKYERTFMASEFLDWLVQEGEATTRKEAEQLCHRLMEHGIIQHVSSKHPFVDSNLLYQFRMNFRRRRRLMELLNEKSPSSQETHDSPFCLRKQSHDNRKSTSFMSVSPSKEIKIVSAVRRSSMSSCGSSGYFSSSPTLSSSPPVLCNPKSVLKRPVTSEELLTPGAPYARKTFTIVGDAVGWGFVVRGSKPCHIQAVDPSGPAAAAGMKVCQFVVSVNGLNVLHVDYRTVNNLILTGPRTIVMEVMEELEC
SASLLKVDQEVKLKVDSFRERITSEAEDLVANFFPKKLLELDSFLKEPILNIHDLTQIHSDMNLPVPDPILLTNSHDGLDGPTYKKRRLDECEEAFQGTKVFVMPNGMLKSNQQLVDIIEKVKPEIRLLIEKCNTVKMWVQLLIPRIEDGNNFGVSIQEETVAELRTVESEAASYLDQISRYYITRAKLVSKIAKYPHVEDYRRTVTEIDEKEYISLRLIISELRNQYVTLHDMILKNIEKIKRPRSSNAETLY
GLLSILRKLKSAPDQEVRILLLGLDNAGKTTLLKQLASEDISHITPTQGFNIKSVQSQGFKLNVWDIGGQRKIRPYWRSYFENTDILIYVIDSADRKRFEETGQELTELLEEEKLSCVPVLIFANKQDLLTAAPASEIAEGLNLHTIRDRVWQIQSCSALTGEGVQDGMNWVCKNVNAKKK
MSSRGGKKKSTKTSRSAKAGVIFPVGRMLRYIKKGHPKYRIGVGAPVYMAAVLEYLTAEILELAVNAARDNKKGRVTPRHILLAVANDEELNQLLKGVTIASGGVLPNIHPELLAKKRGS
MRGSHHHHHHGSMSVSEIFVELQGFLAAEQDIREEIRKVVQSLEQTAREILTLLQGVHQGAGFQDIPKRCLKAREHFGTVKTHLTSLKTKFPAEQYYRFHEHWRFVLQRLVFLAAFVVYLETETLVTREAVTEILGIEPDREKGFHLDVEDYLSGVLILASELSRLSVNSVTAGDYSRPLHISTFINELDSGFRLLNLKNDSLRKRYDGLKYDVKKVEEVVYDLSIRGFNKETAAACVEK
KAKNLNGGLRRSVAPAAPTSSDFSPGDLVWAKMEGYPWWPSLVYNHPFDGTFIREKGKSVRVHVQFFDDSPTRGWVSKRLLKPYTGSKSKEAQKGGHFYSAKPEILRAMQRADEALNKDKIKRLELAVSDEPSE

— the DeepSol protein solubility set
